Results: paper PMC7583350 (Journal of medicinal chemistry, 2018)

How the values were obtained:
Format in all cases: cell-based, human
L363 cells = assay: MTS assay, multiple myeloma cell line L363; conditions: LCL161-sensitive MM cell line, 48 hr, 20 μM
RPMI 8226 cells = assay: MTS assay, multiple myeloma cell line RPMI 8226; conditions: LCL161-resistant MM cell line, 48 hr, 20 μM
LP1 cells = assay: MTS assay, multiple myeloma cell line LP1; conditions: LCL161-resistant MM cell line, 48 hr, 20 μM
U266 cells = assay: MTS assay, multiple myeloma cell line U266; conditions: LCL161-resistant MM cell line, 48 hr, 20 μM
H929 cells = assay: MTS assay, multiple myeloma cell line H929; conditions: LCL161-sensitive MM cell line, 48 hr, 20 μM

CN[C@@H](C)C(=O)N[C@@H](Cc1cc(C)c(C(F)(F)F)cc1F)C(=O)N1CCC[C@H]1C(=O)N[C@@H]1CCc2c(F)cccc21 [Compound 31]
Growth inhibition L363 (L363 cells): approximately equipotent | Growth inhibition RPMI 8226 (RPMI 8226 cells): equally effective | Growth inhibition LP1 (LP1 cells): equally effective | Growth inhibition U266 (U266 cells): equally effective | Growth inhibition H929 (H929 cells): approximately equipotent
